Experimental data published in ChEMBL document CHEMBL1158305, “Bastadin 20 and bastadin O-sulfate esters from Ianthella basta: novel modulators of the Ry1R FKBP12 receptor complex” (J Nat Prod, 1996).

Amino acid sequences for entries named in this document (tags omitted). A change or cut given only in a name is not applied to a line headed by its entry.
UniProt P11716: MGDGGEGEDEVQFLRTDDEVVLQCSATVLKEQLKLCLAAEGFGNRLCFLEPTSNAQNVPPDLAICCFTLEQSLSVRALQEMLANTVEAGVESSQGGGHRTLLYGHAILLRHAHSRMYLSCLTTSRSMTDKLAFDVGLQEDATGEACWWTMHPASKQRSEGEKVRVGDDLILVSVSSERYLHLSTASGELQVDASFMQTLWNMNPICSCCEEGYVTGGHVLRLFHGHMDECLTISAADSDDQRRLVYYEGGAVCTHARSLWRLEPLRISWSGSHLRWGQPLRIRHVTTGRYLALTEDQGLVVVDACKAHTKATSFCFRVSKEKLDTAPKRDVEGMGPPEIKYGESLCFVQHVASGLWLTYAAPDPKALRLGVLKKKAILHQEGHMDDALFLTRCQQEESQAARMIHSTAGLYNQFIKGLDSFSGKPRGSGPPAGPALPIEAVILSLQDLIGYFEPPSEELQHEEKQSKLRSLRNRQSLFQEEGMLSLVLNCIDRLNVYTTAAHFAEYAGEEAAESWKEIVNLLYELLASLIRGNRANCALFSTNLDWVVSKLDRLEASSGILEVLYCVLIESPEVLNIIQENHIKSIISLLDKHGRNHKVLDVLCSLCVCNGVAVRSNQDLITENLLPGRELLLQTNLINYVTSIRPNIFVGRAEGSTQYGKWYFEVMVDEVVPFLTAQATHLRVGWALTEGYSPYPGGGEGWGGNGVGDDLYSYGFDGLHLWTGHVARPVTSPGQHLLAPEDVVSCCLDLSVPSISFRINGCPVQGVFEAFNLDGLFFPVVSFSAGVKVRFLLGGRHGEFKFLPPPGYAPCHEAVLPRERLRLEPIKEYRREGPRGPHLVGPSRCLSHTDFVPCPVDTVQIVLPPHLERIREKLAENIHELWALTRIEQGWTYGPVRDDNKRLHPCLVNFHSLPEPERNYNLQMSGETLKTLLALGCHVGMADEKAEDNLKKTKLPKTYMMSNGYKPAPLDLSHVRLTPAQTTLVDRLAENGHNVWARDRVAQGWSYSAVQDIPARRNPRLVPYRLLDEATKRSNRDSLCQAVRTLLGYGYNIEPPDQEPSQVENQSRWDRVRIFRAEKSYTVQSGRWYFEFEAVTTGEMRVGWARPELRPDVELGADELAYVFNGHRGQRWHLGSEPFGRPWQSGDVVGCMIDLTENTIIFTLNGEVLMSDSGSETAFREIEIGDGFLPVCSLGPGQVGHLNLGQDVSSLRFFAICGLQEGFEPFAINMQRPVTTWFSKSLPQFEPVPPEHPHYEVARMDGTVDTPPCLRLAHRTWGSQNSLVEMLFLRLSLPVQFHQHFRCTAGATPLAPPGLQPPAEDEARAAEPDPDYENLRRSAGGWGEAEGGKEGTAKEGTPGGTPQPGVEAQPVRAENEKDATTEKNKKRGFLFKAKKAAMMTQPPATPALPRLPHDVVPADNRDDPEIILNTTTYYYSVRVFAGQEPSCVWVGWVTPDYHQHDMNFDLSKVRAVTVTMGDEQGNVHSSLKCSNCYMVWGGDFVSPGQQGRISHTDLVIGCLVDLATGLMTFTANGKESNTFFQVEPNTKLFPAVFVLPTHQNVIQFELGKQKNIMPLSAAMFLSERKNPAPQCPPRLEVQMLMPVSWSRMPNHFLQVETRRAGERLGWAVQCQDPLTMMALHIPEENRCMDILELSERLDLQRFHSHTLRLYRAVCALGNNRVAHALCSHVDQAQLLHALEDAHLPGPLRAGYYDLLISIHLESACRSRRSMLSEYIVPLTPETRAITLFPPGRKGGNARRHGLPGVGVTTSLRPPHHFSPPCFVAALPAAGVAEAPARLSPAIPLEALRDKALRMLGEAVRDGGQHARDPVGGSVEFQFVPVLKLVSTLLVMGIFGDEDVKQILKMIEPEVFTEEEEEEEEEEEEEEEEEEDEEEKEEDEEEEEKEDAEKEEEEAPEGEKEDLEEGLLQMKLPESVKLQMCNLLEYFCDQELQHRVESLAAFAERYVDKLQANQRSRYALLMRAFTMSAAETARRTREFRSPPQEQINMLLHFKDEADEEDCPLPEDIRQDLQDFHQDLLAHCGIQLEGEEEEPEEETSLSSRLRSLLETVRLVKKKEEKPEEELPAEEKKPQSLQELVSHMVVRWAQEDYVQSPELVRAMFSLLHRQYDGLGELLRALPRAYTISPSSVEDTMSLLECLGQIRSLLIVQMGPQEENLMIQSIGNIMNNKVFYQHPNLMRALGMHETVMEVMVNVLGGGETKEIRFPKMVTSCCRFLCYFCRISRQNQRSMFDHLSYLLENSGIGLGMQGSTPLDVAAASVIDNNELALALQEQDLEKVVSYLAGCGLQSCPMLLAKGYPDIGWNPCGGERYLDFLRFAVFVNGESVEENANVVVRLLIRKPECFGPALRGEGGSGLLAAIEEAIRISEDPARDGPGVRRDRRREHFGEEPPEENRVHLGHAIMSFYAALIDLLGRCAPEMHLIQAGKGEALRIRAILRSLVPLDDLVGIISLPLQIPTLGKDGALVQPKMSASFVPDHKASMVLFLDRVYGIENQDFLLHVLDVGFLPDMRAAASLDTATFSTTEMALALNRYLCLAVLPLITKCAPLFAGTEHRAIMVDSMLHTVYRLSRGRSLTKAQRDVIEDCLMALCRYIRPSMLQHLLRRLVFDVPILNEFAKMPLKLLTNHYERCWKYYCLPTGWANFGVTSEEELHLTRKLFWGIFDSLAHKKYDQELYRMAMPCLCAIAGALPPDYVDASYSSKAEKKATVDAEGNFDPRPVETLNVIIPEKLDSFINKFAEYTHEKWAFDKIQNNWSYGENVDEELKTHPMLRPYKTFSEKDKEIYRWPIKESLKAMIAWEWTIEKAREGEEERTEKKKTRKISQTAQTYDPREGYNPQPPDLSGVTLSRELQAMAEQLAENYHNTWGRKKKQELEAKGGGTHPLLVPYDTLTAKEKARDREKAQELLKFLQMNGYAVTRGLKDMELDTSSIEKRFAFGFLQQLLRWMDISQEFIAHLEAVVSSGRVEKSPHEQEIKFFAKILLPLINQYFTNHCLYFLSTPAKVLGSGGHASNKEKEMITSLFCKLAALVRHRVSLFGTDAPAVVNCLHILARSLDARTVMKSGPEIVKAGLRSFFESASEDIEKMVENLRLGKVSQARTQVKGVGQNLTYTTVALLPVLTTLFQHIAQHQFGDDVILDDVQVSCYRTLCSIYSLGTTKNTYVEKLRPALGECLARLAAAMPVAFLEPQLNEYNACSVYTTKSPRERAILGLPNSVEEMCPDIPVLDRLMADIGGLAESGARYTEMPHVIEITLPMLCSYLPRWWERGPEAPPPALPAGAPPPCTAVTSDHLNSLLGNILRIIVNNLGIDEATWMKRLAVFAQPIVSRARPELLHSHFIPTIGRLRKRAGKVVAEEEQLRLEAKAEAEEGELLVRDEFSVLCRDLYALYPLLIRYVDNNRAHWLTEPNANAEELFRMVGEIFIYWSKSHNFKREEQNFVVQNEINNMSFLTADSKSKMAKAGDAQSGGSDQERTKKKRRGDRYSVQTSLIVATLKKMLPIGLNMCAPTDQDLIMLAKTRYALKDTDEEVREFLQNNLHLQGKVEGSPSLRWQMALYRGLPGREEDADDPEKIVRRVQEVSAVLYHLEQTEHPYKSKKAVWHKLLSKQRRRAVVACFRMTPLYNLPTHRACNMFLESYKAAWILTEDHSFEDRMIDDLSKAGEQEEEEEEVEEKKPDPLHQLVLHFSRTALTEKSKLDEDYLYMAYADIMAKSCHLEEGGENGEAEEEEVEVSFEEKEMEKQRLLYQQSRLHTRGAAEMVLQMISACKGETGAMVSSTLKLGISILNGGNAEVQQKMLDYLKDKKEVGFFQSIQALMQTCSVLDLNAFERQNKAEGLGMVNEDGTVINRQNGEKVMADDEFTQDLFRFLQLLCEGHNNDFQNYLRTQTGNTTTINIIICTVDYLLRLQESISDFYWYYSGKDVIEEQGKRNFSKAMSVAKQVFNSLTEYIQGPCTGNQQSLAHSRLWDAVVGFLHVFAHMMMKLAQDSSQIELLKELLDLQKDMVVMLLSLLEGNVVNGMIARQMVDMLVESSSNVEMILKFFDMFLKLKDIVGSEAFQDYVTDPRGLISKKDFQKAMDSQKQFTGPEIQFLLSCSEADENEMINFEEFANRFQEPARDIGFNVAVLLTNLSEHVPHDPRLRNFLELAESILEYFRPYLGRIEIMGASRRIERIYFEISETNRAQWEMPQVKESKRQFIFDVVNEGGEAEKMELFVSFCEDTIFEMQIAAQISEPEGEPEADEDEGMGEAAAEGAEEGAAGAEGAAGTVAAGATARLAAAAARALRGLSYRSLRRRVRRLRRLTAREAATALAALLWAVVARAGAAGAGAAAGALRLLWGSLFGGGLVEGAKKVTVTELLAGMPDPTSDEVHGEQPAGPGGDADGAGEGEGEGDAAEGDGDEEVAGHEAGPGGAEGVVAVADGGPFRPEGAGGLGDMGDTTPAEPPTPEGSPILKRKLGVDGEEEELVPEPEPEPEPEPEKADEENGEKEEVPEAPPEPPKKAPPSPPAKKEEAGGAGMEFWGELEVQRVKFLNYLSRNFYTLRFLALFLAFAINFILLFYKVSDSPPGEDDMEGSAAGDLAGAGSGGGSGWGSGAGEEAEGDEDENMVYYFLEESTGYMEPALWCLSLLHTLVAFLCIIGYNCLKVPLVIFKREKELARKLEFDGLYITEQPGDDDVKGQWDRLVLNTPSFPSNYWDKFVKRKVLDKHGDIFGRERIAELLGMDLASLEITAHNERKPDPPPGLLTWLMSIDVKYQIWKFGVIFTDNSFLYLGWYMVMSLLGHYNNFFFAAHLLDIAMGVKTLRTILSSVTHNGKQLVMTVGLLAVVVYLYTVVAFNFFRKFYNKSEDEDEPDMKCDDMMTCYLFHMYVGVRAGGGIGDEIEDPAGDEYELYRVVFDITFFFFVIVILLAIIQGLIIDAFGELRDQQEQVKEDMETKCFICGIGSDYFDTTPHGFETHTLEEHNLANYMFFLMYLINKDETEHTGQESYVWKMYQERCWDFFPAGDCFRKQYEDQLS

Target: Ryanodine receptor 1 (Oryctolagus cuniculus, UniProt P11716)
Test: Displacement of [3H]ryanodine from Ry1R/FKBP12 receptor complex in rabbit sarcoplasmic reticulum

O=C1NCCc2ccc(c(Br)c2)Oc2cc(cc(Br)c2O)CCNC(=O)/C(=N/O)Cc2cc(Br)c(O)c(c2)Oc2ccc(cc2Br)C/C1=N\O
EC50: 20.6 µM
